{"source": "paper doi:10.1101/2025.02.24.640009", "target": "Cy5-PLN20 (cytoplasmic domain of phospholamban, residues 1-20) (UniProt P26678)", "experiment": "single-molecule diffusivity and electrokinetic mobility in an ABEL trap; 10 pM Cy5-PLN20 or Cy5-SP20 trapped, 0.26 uM PKAc, 0.4 uM lambda phosphatase, 20 mM HEPES pH 7.2, 2 mM Trolox, 100 mM NaCl, 5 mM MgCl2, 0.4 mM MnCl2, 0.4 mM ATP; 23 °C; complex seen as low-D state"}
{"substance": "cAMP-dependent Protein Kinase A catalytic subunit (from UniProt P05132 1-351) (enzyme)", "values": [{"measurement": "time bound", "value": 20, "unit": "ms"}]}
